The chains are these.
T1: CHD1 chromodomain
T1 chain: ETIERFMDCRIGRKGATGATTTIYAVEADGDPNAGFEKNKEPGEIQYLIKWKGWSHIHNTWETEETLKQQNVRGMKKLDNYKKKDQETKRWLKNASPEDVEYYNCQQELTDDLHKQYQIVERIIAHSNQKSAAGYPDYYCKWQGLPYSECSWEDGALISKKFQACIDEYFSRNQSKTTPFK

B1: H3K4me3 histone H3 tail peptide (ITC) (peptide)
chain: ARTKQTARKSTGGKA
modifications: trimethyl-lysine at 4; C-terminal amide (general statement of the peptide synthesis)
B2: H3K4me3Q5his histone H3 tail peptide (ITC) (peptide)
chain: ARTKQTARKSTGGKA
modifications: trimethyl-lysine at 4; histaminylated glutamine at 5; C-terminal amide (general statement of the peptide synthesis)
B3: H3K4me3Q5ser histone H3 tail peptide (ITC) (peptide)
chain: ARTKQTARKSTGGKA
modifications: trimethyl-lysine at 4; serotonylated glutamine at 5; C-terminal amide (general statement of the peptide synthesis)

The test addresses T1, CHD1 chromodomain. As to the kind of experiment: ITC. (In ITC the heat of successive injections is recorded.)
B1 registered a Kd of 12.2 µM.

B2 showed a Kd of 6.21 µM.

For the molecule B3, the Kd was 5.41 µM.

Usually Kd stands for a measure of binding affinity in units of concentration. Low values mean a tighter complex, high ones a looser complex.
